The list is not random: actives were taken first. Their share in the collection is about 2.8%.
PGC1a acetyl inh – modulators of PGC1a acetylation; U2OS PGC1a acetylation, AlphaScreen anti-acetyl-lysine; with virally co-expressed GCN5 acetyltransferase; inhibition, % at 15.6 µM; actives 0.17% (n = 350,000); AID 651687;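 active means every replicate shows inhibition of at least 40%; inconclusive means mean inhibition at least 40% but some replicate below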
Yeast UUG start – modulators of yeast start codon fidelity, primary screen, whole organism, S. cerevisiae, single point, plate reader | AID 602363, 2012 | actives 0.13% (n = 350,000) | activity score, % at 18.7 µM | S. cerevisiae UUG-firefly luciferase reporter, luminescence/redox ratio;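 active means replicate mean at a twofold rise or more, about +100% in these data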;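 further: firefly luciferase made from a UUG start codon reports start codon fidelity; reporter light over untreated wells divided by growth signal over untreated wells; some hits fall short of that in this replicate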
esBAF inh – SWI/SNF esBAF complex inhibition; AID 602393; reporter increase, % at 12.5 µM; actives 2% (n = 350,000); mouse ES cells, Bmi1-luciferase knock-in reporter, 24 h; 100% = twice the neutral-well signal; in the data active means activation above about 40%; inconclusive means no clear call, values can overlap the other calls;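 further: a rise in the Bmi1 reporter signal indicates esBAF inhibition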
E-selectin induc – induces E-selectin expression in human endothelial cells. activation, % at 7.58 µM. P16581. HUVEC E-selectin immunofluorescence imaging; normalized: neutral wells 0, TNF-alpha wells 100. actives 0.37% (n = 260,000);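 active means mean E-selectin-positive cell signal at least 10% of the positive control, reached in at least 60% of replicates, without over 20% cell loss; inconclusive means no rule given, readout overlaps actives, possibly toxicity-flagged; inactive means the rest, including those meeting only one limit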
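Test system: HUVEC; input: 3,000 HUVEC/well; measured by: immunofluorescence imaging; read-out: % PE-positive cells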
C2C12 statin – suppression of simvastatin myotoxicity; C2C12 myotubes + simvastatin, ATP luminescence, 48 h; scaled: DMSO 0, geranylgeraniol control 100; actives 0.78% (n = 330,000); rescue of ATP level, % at 7.49 µM;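 active means mean ATP rescue above about 67%, or every replicate alone reaching that limit, limit read from the data, passing the limit was not always enough; inconclusive means no clear call, values can overlap the other calls; inactive means mean under the limit and some replicate under it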;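 further: myotubes were challenged with 10 µM simvastatin during compound exposure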
PglD DTNB – blocks C. jejuni PglD acetyltransferase activity; purified PglD enzyme, DTNB colorimetric CoA detection; inhibition, % at 12.5 µM; actives 0.098% (n = 360,000); in the data active means inhibition above about 16%, passing the limit was not always enough; inconclusive means no clear call, values can overlap the other calls
Large screens that a line does not name were inactive.

O=C(Nc1cnn(Cc2ccccc2)c1)c1cc2nc(-c3ccco3)cc(C(F)(F)F)n2n1	C2C12 statin 125 (no result: E-selectin induc)
Cc1ccc(S(=O)(=O)N[C@@H]2CC[C@H](CCn3cc(-c4cccnc4)nn3)O[C@H]2CO)cc1	none (no result: Yeast UUG start)
O=C(CSc1ccc(-c2cccc([N+](=O)[O-])c2)nn1)N1CCCC1	none (no result: Yeast UUG start, esBAF inh, C2C12 statin, PglD DTNB)
CCSc1ccc(-c2cccc([N+](=O)[O-])c2)nn1	esBAF inh 49
COC(=O)c1ccc(CSc2nc3ccccc3s2)o1	esBAF inh 47 (no result: E-selectin induc)
COC(=O)c1ccc(CSc2n[nH]c(=S)s2)o1	none (no result: E-selectin induc)
COc1cccc(CNC(=O)c2cc3c(c(-c4cccc(-c5cccc(C#N)c5)c4)n2)[C@H](CCO)N(S(=O)C(C)(C)C)C3)c1 (stereo partly drawn)	E-selectin induc 49
COc1cccc(CNC(=O)c2cc3c(c(-c4cccc(-c5ccc(C#N)cc5)c4)n2)[C@H](CCO)N([S@@](=O)C(C)(C)C)C3)c1	E-selectin induc 60 (no result: Yeast UUG start)
C[C@@H]1CN([C@H](C)CO)C(=O)c2cccc(NS(=O)(=O)c3ccc(Cl)cc3)c2O[C@H]1CN(C)CC1CCCCC1	none (no result: PGC1a acetyl inh)
CC(=O)N1CCN(S(=O)(=O)c2cccc(C(=O)NCc3ccc(F)cc3)c2)CC1	C2C12 statin 77 (no result: esBAF inh)
O=C(NCc1ccc(F)cc1)c1cccc(S(=O)(=O)N2CCCC2)c1	none (no result: E-selectin induc)
CC(=O)c1ccc(NC(=O)c2cccc(S(=O)(=O)N3CCN(C)CC3)c2)cc1	esBAF inh 58
CCCNC(=O)Nc1ccc2c(c1)OC[C@@H](C)N(C(=O)C1CCOCC1)C[C@H](C)[C@H](OC)CN(C)C2=O	none (no result: Yeast UUG start, esBAF inh, C2C12 statin, PglD DTNB)
C/C=C/c1ccc2c(c1)O[C@H](CN(C)C(=O)CN(C)C)[C@@H](C)CN([C@@H](C)CO)S2(=O)=O	none
COc1ccc(S(N)(=O)=O)cc1C(=O)NCCCN1CCN(c2cccc(Cl)c2)CC1	none (no result: E-selectin induc)
COc1cc2c(C(=O)NCCCN3CCN(c4cccc(Cl)c4)CC3)cn(C)c(=O)c2cc1OC	C2C12 statin 122 (no result: E-selectin induc)
CCOC(=O)Cc1csc(NC(=O)CC(C)(C)C)n1	C2C12 statin 110 (no result: E-selectin induc)
COCC(=O)N(C)C[C@@H]1Oc2ncc(C#C[C@@H](C)O)cc2C(=O)N([C@H](C)CO)C[C@H]1C	none
Cc1ccc(-n2nnc(-c3cc4ccccc4n3C)n2)cc1	esBAF inh 58
Fc1ccc(-n2nnc(-c3ccnc4ccccc34)n2)cc1	esBAF inh 61 (no result: PGC1a acetyl inh, E-selectin induc)
Cc1ccc(-n2nnc(-c3ccnc4ccccc34)n2)cc1	esBAF inh 69 (no result: PGC1a acetyl inh)
COc1ccc(NC(=O)N(C)C[C@H]2Oc3ncc(-c4cccnc4)cc3C(=O)N([C@@H](C)CO)C[C@H]2C)cc1	none (no result: E-selectin induc)
C[C@@H](NC(=O)C[C@H]1CC[C@H](NC(=O)Nc2ccc3c(c2)OCO3)[C@@H](CO)O1)c1ccccc1	none
CC(C)Oc1ccc(C2CC(=O)N(c3cccc(C(=O)O)c3)C2=O)cc1 (stereo not drawn)	esBAF inh 56 (no result: E-selectin induc)
CC(C)Oc1ccc(C2CC(=O)N(c3ccc(C(=O)O)cc3)C2=O)cc1 (stereo not drawn)	none (no result: E-selectin induc, C2C12 statin)
CS(=O)(=O)N1[C@@H]2Cn3c(ccc(-c4ccc(F)cc4)c3=O)[C@H]1[C@@H](C(=O)N1CCOCC1)[C@@H]2CO	none (no result: PGC1a acetyl inh, Yeast UUG start)
CS(=O)(=O)N1CCCC(C(=O)NCc2ccccn2)C1 (stereo not drawn)	PGC1a acetyl inh 47 (no result: E-selectin induc)
CCCCOC(=O)Nc1ccc(C(C)C)cc1	esBAF inh 75 (no result: E-selectin induc)
CCOC(=O)Nc1ccc(Oc2ccccc2)cc1	esBAF inh 54 (no result: E-selectin induc)
CCCCOC(=O)Nc1ccc(C(N)=O)cc1	esBAF inh inconclusive (no result: E-selectin induc)
CC(C)c1ccc(C(=O)Nc2nnc(S(=O)(=O)N3CCCCC3)s2)cc1	E-selectin induc 45 (no result: PGC1a acetyl inh)
O=C(Nc1nnc(S(=O)(=O)N2CCOCC2)s1)c1cccc(F)c1	esBAF inh 58
Cc1noc(C)c1S(=O)(=O)Nc1ccc2c(c1)C(=O)N([C@H](C)CO)C[C@H](C)[C@H](CN(C)C(=O)NC(C)C)OCCCC[C@H](C)O2	none (no result: E-selectin induc, C2C12 statin)
C[C@@H]1CN([C@@H](C)CO)S(=O)(=O)c2ccc(Br)cc2O[C@@H]1CN(C)C(=O)C1CCC1	none (no result: Yeast UUG start, esBAF inh, PglD DTNB)
CC(C)C(OC(=O)CCCC(=O)Nc1nccs1)C(=O)NC1CCCCC1 (stereo not drawn)	none (no result: Yeast UUG start, esBAF inh, E-selectin induc, C2C12 statin, PglD DTNB)
CC(C)C(OC(=O)CCC(=O)Nc1nccs1)C(=O)NC1CCCCC1 (stereo not drawn)	C2C12 statin 99
COC(=O)C[C@H]1C=C[C@@H](NS(=O)(=O)c2ccccc2F)[C@@H](CO)O1	none
COC(=O)c1ccc(Cn2cnc3c(cnn3-c3ccc(F)cc3)c2=O)o1	none (no result: Yeast UUG start, E-selectin induc, PglD DTNB)
CC(C)CCn1cnc2c(cnn2-c2ccc(F)cc2)c1=O	esBAF inh 46 (no result: E-selectin induc)
COc1ccccc1Oc1ccc2c(c1)C(=O)N(CC(=O)O)C2=O	none (no result: PGC1a acetyl inh, E-selectin induc)
COc1ccccc1Oc1ccc2c(c1)C(=O)N(c1ccc(O)cc1)C2=O	C2C12 statin 128 (no result: E-selectin induc)
CC(Oc1ccc2c3c(c(=O)oc2c1)CCC3)C(=O)N[C@@H](Cc1ccccc1)C(=O)O (stereo partly drawn)	PGC1a acetyl inh 75 (no result: E-selectin induc)
Cc1csc(SC(C)C(=O)NCc2ccc3c(c2)OCO3)n1 (stereo not drawn)	none
CC(Sc1nc2ccccc2s1)C(=O)NCc1ccc2c(c1)OCO2 (stereo not drawn)	esBAF inh 52 (no result: PGC1a acetyl inh, Yeast UUG start, PglD DTNB)
CC(C)NC(=O)N(C)C[C@H]1Oc2cc(-c3ccncc3)ccc2S(=O)(=O)N([C@H](C)CO)C[C@@H]1C	none
Cn1ccsc1=NC(=O)c1ccc(Cl)c([N+](=O)[O-])c1	esBAF inh 83 (no result: E-selectin induc)
CCCCOc1ccc(C(=O)N=c2sccn2C)cc1OC	esBAF inh 57 (no result: PGC1a acetyl inh)
Cc1ccccc1C(=O)N=c1sccn1C	none (no result: esBAF inh, E-selectin induc, C2C12 statin)
Cc1cccc(C(=O)N=c2sccn2C)c1[N+](=O)[O-]	esBAF inh 56 (no result: PGC1a acetyl inh)
Cc1ccc(C(=O)N=c2sccn2C)cc1S(=O)(=O)N1CCOCC1	esBAF inh 63 (no result: PGC1a acetyl inh, E-selectin induc)
CC(C)CC#Cc1cnc2c(c1)C(=O)N([C@@H](C)CO)C[C@H](C)[C@H](CN(C)C(=O)c1ccc(F)cc1)O2	none
C[C@H](CO)N1C[C@H](C)[C@H](CN(C)C(=O)Nc2ccc(F)cc2)Oc2c(NS(=O)(=O)c3cn(C)cn3)cccc2C1=O	none
CCOc1ccc(NC(=S)NC23CC4CC(CC(C4)C2)C3)cc1	none (no result: E-selectin induc)
FC(F)Oc1ccc(NC(=S)NC23CC4CC(CC(C4)C2)C3)cc1	esBAF inh 50 (no result: PGC1a acetyl inh, E-selectin induc)
CN(C)c1ccc(NC(=S)NC23CC4CC(CC(C4)C2)C3)cc1	esBAF inh 67, E-selectin induc 73
CCNC(=O)C[C@H]1CC[C@H]2[C@@H](COc3ccc(NC(=O)Nc4ccccc4Cl)cc3C(=O)N2C)O1	none (no result: Yeast UUG start, esBAF inh, C2C12 statin, PglD DTNB)
CCNC(=O)[C@@H]1[C@@H](CO)[C@@H]2Cn3c(cccc3=O)[C@@H]2N1C(=O)C1CCCC1	none (no result: Yeast UUG start)
